This is an account of results in patent US20130296347A1, “Compositions and Methods for Prophylaxis and Treatment of Addictions” (Omeros Corporation, priority 2007, published 2013).

The subject of the experiment is alcoholic patients. The experiment is described as follows: Observational study of alcohol abuse in human patients. It counts as in vivo.

For the compound `O=C1CC[C@@]2(O)[C@H]3Cc4ccc(O)c5c4[C@@]2(CCN3CC2CC2)[C@H]1O5` [naltrexone], under “T1 = 4 weeks”, the “MCV, mean value of blood tests” value came to 101.96. For the same compound, the “Anxiety Score, STAY-Y1 scale (mean score values)” value (shortened to “Anxiety Score, STAY-Y1 scale”) was determined as 61 (T = 0, beginning of the treatment); 61 (T = 1.1 (month 1, week 1)); 59 (T = 1.2); 53 (T = 1.3); 52 (T = 1.4); 51 (T = 2.1). Further, the “Anxiety Score, STAY-Y1 scale” value (T = 2.2) was determined as 53; the “Anxiety Score, STAY-Y1 scale” value (T = 2.3) came out at 52; the “Anxiety Score, STAY-Y1 scale” value (T = 2.4) worked out at 51. Moreover, the “Obsessive compulsive drinking scale (OCDS) (mean score values)” value is given as 41 (T = 1.3); 40 (T = 1.4); 41 (T = 2.1); 43 (T = 2.2); 42 (T = 2.3); 44 (T = 2.4).
